Measurements reported in US7183251B1, “hCG therapy for the treatment of breast cancer” (Fox Chase Cancer Center, priority 1998, dated 2007).
Several values for one entry are separate records, joined by “and”; a condition that tells them apart may be missing. Equal values may be shown once.

Experiments:
CG-5 cells = test: CG-5 cell growth experiments (cell counts with hemocytometer); assay type: cell-based, human; settings: for inhibition of cell proliferation with respect to control: then 10^-7 M TAM
Procedure: Preliminary in vitro experiments were carried out on CG-5 cells, a variant of the MCF-7 cell line (Natoli C. et al., 1983, Breast Cancer Res. Treat. 3:23–32) characterized by a high degree of estrogen responsiveness and an appreciable content of estrogen, androgen, glucocorticoid and progesterone receptors.
Cells were routinely cultured in Dulbecco's modified Eagle's medium (DMEM) supplemented with 10% fetal calf serum (FCS) and antibiotics. For cell growth experiments, cells were plated out at the density of 50,000 cells/ml in the medium described above. Twenty-four hours later, the medium was replaced with fresh medium containing 5% charcoal-treated FCS(CH-FCS) plus a fixed concentration (10^−7 M) of Tamoxifen (TAM) and various concentrations (from 10 to 10,000 IU/ml) of hCG. Medium was renewed every 3 days. In the experiments concerning the effect of hCG and TAM sequentially added to CG-5 cells, cells were plated out at 50,000 cells/ml, as described above, and 24 hours later DMEM was changed with fresh medium containing 10 to 10,000 IU/ml of hCG. […] After 1 week of exposure to hCG, CG-5 cells were plated in medium supplemented which 10% FCS and antibiotics, and 24 hours later DMEM was replaced by fresh medium supplemented with 5% CE-FCS and a fixed concentration of TAM (10^−7 M). Medium was renewed every 3 days. In all experiments performed cells were counted, after 3 to 6 days, with the use of an hemocytometer.

[1] = tested on: carcinogen-induced rat mammary tumors; settings: cited from earlier work
metastatic breast cancer = test: Open-label study of r-hCG in metastatic breast cancer in postmenopausal women; assay type: in vivo, human; settings: postmenopausal women with metastatic disease, Example 2
Source text: The primary objective of this study was to assess the effect of r-hCG on the tumor response rate of bi-dimensionally measurable or palpable lesions. The secondary objectives were: i.) to assess the effect of r-hCG treatment on symptoms caused by metastatic breast tumor lesions, ii.) to determine whether r-hCG exerts any adverse systemic effects, iii.) to measure time to tumor progression and, iv.) to determine the effects of r-hCG on endocrinology parameters and tumor markers.
Thirteen postmenopausal women diagnosed with biopsy-proven breast cancer and clinical evidence of metastatic disease were entered in the study. Patients are treated with 500 mcg of r-hCG three times per week for at least two months. Tumor assessment and measurement of target indicator lesions are performed every two months by X-ray, CT scan, MRI or physical examination. After 60 days of treatment, a re-evaluation of metastatic lesions is performed using the same diagnostic procedure(s). In the event of disease progression (i.e., appearance of new tumor or growth of indicator lesions by at least 25% in square dimensions) study treatment is discontinued, otherwise, treatment is continued, with patient re-evaluations every eight weeks, until progressive disease is noted.

[2] = tested on: normal and neoplastic human breast epithelial cells; settings: cited from earlier work
neoplastic KS cells = settings: cited from earlier work
[3] = tested on: neoplastic cell lines from various organs or systems; settings: urinary hCG from various sources; cited from earlier work
[4] = tested on: DMBA-induced rat mammary carcinomas; test: Effect on advanced (palpable) tumor development after DMBA (Regimens 7-9); assay type: in vivo
Procedure: (§1) Evaluation of the therapeutic efficiency of r-hCG on mammary cancer. The tumoristatic and tumoricidal efficacy of r-hCG and u-hCG on early and advanced mammary cancer was tested in intact virgin rats that had received a single dose of DMBA when they were 45 days old (FIG. 4, Regimens 4–9). The effect on early tumor development was tested under Regimens 4, 5, and 6. It was evaluated by initiating r-hCG treatment 20 days after DMBA administration, when early lesions, such as intraductal proliferations (IDPs) and carcinomas in situ (CIS) are already present, but there are no palpable tumors as yet. The effect on advanced tumor development was evaluated by starting the hormonal treatment 60 days after DMBA administration, or when palpable tumors had reached at least 1 cm in maximal diameter (Regimens 7, 8, and 9). In both groups the hormone was administered for 40 days and final tumorigenic response was evaluated 20 weeks post-DMBA administration. The effect of the hormonal treatment on the rate of tumor growth, with special emphasis on tumor regression, absence of skin ulceration, and final tumor size and necrosis were evaluated at the time of assessment of the final tumorigenic response.
(§2) For Regimens 4–9, 300 animals were inoculated with a single ig dose of 8 mg DMBA/100 g bw when they were 45 days old. Tumorigenic response was evaluated by palpation of the right and left mammary cervical, thoracic, abdominal and inguinal areas and from ventral to dorsolateral extensions of the glands. All tumors were sequentially numbered in the order they had appeared, their location was recorded, and the rate of tumor growth was determined by measurement of tumor size with a Vernier caliper. All changes in the health status of the animals, rapid tumor growth or skin ulceration were recorded. Those animals in which the tumors were excessively large or became ulcerated were euthanized, irrespectively of the stage of the hormonal treatment, in compliance with IACUC regulations. Those animals that were euthanized before initiation or before the completion of the hormonal treatments were deleted from the statistical analysis of the final tumorigenic response.
Regimens 7–9 tested the effects of r-hCG and u-hCG on late (palpable) tumor development: Sixty days after DMBA inoculation, when the rats were 105 days old, animals allocated to Regimen 7 started receiving a daily ip injection of 100 IU/day r-hCG for 40 days. Under Regimens 8 and 9 the same number of animals received for 40 days 100 IU/day of u-hCG or 0.5 ml placebo, respectively. Tumorigenic response was evaluated by biweekly palpation. All tumors were sequentially numbered, their location was recorded, and the rate of tumor growth was determined by measurement of tumor size with a Vernier caliper. Final tumorigenic response was evaluated 20 weeks after administration of DMBA.
(§3) Evaluation of Final Tumorigenic Response. […] The tumors were rapidly dissected, measured in three dimensions, and serially sliced. Adjacent slices were:
(§4) The following criteria were utilized for evaluating the final tumorigenic response:
(§5) 1. Rate of tumor growth, based on sequential measurement of the two largest diameters of tumors in live animals utilizing a Vernier Caliper and expressing the results in mm.
(§6) 2. Final tumor size, based on measurement of the length, width and height of dissected tumors with a Vernier Caliper. Results were expressed in mm. A progressively smaller tumor size in successive measurements was indicative of tumor regression. Palpable tumors that had disappeared at the time of dissection were considered to be 100% regressed. The mammary tissue in which the tumor had been originally identified was fixed in 10% NBF for histopathological analysis.
(§7) 5. Statistical Analysis. The significance of the differences in tumorigenic response among the groups was determined by Chi Square analysis and Student's T test.

breast cancer = settings: women treated for infertility or weight loss; cited from earlier work
[5] = tested on: DMBA-induced rat mammary carcinomas; test: Effect on early tumor development after DMBA (Regimens 4-6); assay type: in vivo; settings: 100 IU/day ip 40 days starting 21 days after DMBA, Regimens 5, 6
Procedure: as §1, §2
Regimens 4–6 were designed for testing the effect of the hormonal treatments on early tumor development. Twenty one days after DMBA administration those animals allocated to Regimen 4 started receiving a daily ip injection of 0.5 ml placebo for 40 days. Under Regimens 5 and 6 the same number of animals received for 40 days 100 IU/day of r-hCG or u-hCG, respectively. All the animals were palpated biweekly for detection of tumor development and determination of tumor growth rate. Final tumorigenic response was evaluated 20 weeks after administration of DMBA.
as §3, §4, §5, §6, §7

Kaposi's sarcoma = settings: injected into mice; cited from earlier work
breast cancer cells = settings: cited from earlier work
[6] = tested on: DMBA-induced rat mammary carcinomas; test: Prevention of DMBA-induced rat mammary carcinomas (Regimens 1-3); assay type: in vivo
Procedure: Evaluation of the efficacy of r-hCG in the prevention of mammary cancer: Regimens 1–9 utilized in the experiments described below are shown schematically in FIG. 4. The animals utilized in Regimens 1–9 consisted of 450 intact virgin Sprague-Dawley rats that were purchased from Taconic Farms (New York, N.Y.).
The potential of hCG to inhibit the initiation of DMBA-induced rat mammary carcinomas was evaluated in intact virgin rats treated with placebo (Regimen 1); 100 IU r-hCG/day (Regimen 2), or 100 IU u-hCG/day (Regimen 3). All animals were injected daily for 21 days, starting when the rats were 45 days old. The carcinogen DMBA was administered as a single intragastric dose (8 mg/100 g body weight) given 21 days after the last injection of placebo or hormone. Under these protocols the first effect evaluated was the appearance of tumors detected by palpation and their location with regards to specific mammary glands. Other parameters evaluated were the rate of tumor growth, tumor ulceration, and tumor regression or ulcer healing and tumor necrosis in response to the hormonal treatment.
All treatments were initiated when the animals were 45 days old. For Regimen 1 fifty rats received a daily intraperitoneal (ip) injection of 0.5 ml placebo for 21 days. Under Regimens 2 and 3 the same number of animals received for 21 days 100 IU/day of r-hCG or u-hCG (Steris Laboratories, Phoenix, Ariz.) respectively. Twenty-one days after completion of the last injection, when the animals were 87 days old, the three groups of animals were inoculated with a single intragastric (ig) dose of 8 mg DMBA (Sigma Chemical Co., St. Louis, Mo.) per 100 g body weight (bw). Thereafter all the animals were palpated periodically for detection of tumor development and determination of tumor growth rate. Final tumorigenic response was evaluated 15 weeks after administration of DMBA.
as §3, §4, §5, §6, §7

[7] = 100 IU/day ip 40 days starting 60 days after DMBA, Regimens 7, 8
[8] = 100 IU/day ip 21 days before DMBA, Regimens 2, 3

hCG: human chorionic gonadotropin, source (urinary or recombinant) not stated at the place
effect on cell growth at 10 IU/ml, hCG used alone (CG-5 cells; 10 IU/ml hCG alone): practically ineffective | effect on cell growth at 10 IU/ml combined with the anti-estrogen (CG-5 cells; 10 IU/ml hCG with Tamoxifen): efficacious | dose at which the inhibitory effect significantly increases (CG-5 cells; hCG alone, six days of treatment): 1000 IU/ml | concentration from which inhibition of cell proliferation is evident (CG-5 cells; hCG alone, three days of exposure): ≥ 100 IU/ml | inhibition of cell proliferation with respect to control (CG-5 cells; pretreated 1 week with highest concentration of hCG, third day after TAM): approximately 50% | inhibition of cell proliferation with respect to control (CG-5 cells; pretreated 1 week with lowest concentration of hCG, sixth day after TAM): about 65% | tumor development, treatment after exposure to carcinogens ([1]; hCG treatment of rats after carcinogen): protected them from tumor development | patients with positive effect on the course of the illness (metastatic breast cancer): more than 50% | proliferation of normal and neoplastic human breast epithelial cells [2]: inhibits the proliferation

u-hCG: urinary human chorionic gonadotropin, obtained from the urine of pregnant women (Steris Laboratories)
effect in the in vivo animal model or in vitro assay on KS cells (neoplastic KS cells): Neither purified urinary nor purified recombinant hCG, subunits or fractions of hCG had any effect | effect on neoplastic cell lines from various organs or systems [3]: inhibitory effect | No. Tumors/Animal (total animals at risk) [4, 7]: 3.4 | Percentage (animals with tumors) [4, 7]: 88.8 | Total No. Tumors [4, 7]: 122 | reduction of tumor burden ([4]; treatment initiated 60 days after DMBA, vs placebo): 40% | incidence of breast cancer (breast cancer): reduced incidence of breast cancer | No. An. With Tumors ([5]; 20 weeks post-DMBA): 30/46 and 30 | No. Tumors/Animal [5]: 1.9 | Percentage (animals with tumors) [5]: 65.2 | Total No. Tumors [5]: 88 | effect in mice having established, metastatic Kaposi's sarcoma (Kaposi's sarcoma): anti-proliferative effect | chemically-induced mammary tumorigenesis ([1]; preventive agent): inhibits chemically-induced mammary tumorigenesis | incidence of carcinoma-induced mammary tumors ([1]; rats pre-treated with daily doses for several weeks before tumor induction): reduced | cell death of breast cancer cells in vitro (breast cancer cells): induction of cell death | No. Tumors/Animal [6, 8]: 0.14 | Percentage (animals with tumors) [6, 8]: 12.0 | Total No. Tumors [6, 8]: 7 | No. An. With Tumors ([6]; 100 IU/day ip 21 days from age 45 days, DMBA 21 days after last injection, 15 weeks post-DMBA): 6/50 and 6
